Laboratory results as given in patent US7572786B2, “Substituted 1-piperidin-3-yl-4-piperidin-4-yl-piperazine derivatives and their use as neurokinin antagonists” (Janssen Pharmaceutica, N.V., priority 2002, dated 2009).

Protein sequences, listed by entry. Tags and fused reporters are not part of them.
UniProt P21452, whole entry: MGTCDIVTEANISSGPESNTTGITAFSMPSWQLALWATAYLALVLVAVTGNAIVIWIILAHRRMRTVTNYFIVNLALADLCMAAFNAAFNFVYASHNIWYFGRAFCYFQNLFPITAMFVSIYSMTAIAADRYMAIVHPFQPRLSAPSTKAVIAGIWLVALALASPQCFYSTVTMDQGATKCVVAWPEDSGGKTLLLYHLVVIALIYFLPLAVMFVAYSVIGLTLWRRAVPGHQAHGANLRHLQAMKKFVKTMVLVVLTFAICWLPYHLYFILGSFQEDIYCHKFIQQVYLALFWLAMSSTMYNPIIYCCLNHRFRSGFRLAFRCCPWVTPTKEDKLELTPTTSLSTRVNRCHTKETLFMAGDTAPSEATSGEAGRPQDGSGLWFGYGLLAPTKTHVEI
UniProt P25103, whole entry: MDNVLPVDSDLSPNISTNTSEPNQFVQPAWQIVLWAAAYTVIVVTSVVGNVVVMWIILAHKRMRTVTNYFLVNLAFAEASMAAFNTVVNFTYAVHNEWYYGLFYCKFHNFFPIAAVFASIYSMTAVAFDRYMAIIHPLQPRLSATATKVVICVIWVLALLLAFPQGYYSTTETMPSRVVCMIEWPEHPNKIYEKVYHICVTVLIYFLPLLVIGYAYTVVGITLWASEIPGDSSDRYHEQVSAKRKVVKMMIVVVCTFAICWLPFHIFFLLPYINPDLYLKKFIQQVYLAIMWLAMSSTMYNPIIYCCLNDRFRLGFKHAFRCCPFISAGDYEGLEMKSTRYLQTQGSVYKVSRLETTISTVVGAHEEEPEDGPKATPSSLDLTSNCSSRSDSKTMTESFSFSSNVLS
UniProt P29371, whole entry: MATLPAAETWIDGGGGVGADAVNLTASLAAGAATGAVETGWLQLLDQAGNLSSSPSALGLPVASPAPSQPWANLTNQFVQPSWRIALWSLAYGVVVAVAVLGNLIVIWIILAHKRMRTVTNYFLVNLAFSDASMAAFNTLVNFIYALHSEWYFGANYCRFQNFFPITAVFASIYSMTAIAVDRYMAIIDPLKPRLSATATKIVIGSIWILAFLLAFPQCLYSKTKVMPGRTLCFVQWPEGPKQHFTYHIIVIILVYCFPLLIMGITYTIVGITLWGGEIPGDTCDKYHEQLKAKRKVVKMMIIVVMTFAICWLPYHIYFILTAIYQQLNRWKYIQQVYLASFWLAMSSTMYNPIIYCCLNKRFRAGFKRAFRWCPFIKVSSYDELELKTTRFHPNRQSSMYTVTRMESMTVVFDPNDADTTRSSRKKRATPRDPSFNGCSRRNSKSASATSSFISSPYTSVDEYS

Columns and labels:
Assay type in all cases: cell-based
[1] = biological target: NK2 (Homo sapiens, UniProt P21452); experiment: Signal transduction (ST), intracellular Ca++ (FLIPR), NK2
[2] = biological target: NK1 (Homo sapiens, UniProt P25103); experiment: Signal transduction (ST), intracellular Ca++ (FLIPR), NK1 antagonism
[3] = biological target: NK3 (Homo sapiens, UniProt P29371); experiment: Signal transduction (ST), intracellular Ca++ (FLIPR), NK3

Structure (SMILES): O=C(c1cc(C(F)(F)F)cc(C(F)(F)F)c1)N1CC[C@H](N2CCN(C3CCCN(S(=O)(=O)c4ccccc4O)C3)CC2)C[C@H]1Cc1ccccc1 (some centres unmarked)
- pIC50 NK2 [1]: 5.6
- pIC50 NK1 [2]: 7.7
- pIC50 NK3 [3]: 5.8

Structure (SMILES): O=C(C1CC1)N1CCCC(N2CCN([C@H]3CCN(C(=O)c4cc(C(F)(F)F)cc(C(F)(F)F)c4)[C@H](Cc4ccccc4)C3)CC2)C1 (single isomer, unassigned)
- pIC50 NK2 [1]: 5.5
- pIC50 NK1 [2]: 8.4
- pIC50 NK3 [3]: 6.3

Structure (SMILES): O=C(C1CC1)N1CCCC(N2CCN(C3CCN(C(=O)c4cc(C(F)(F)F)cc(C(F)(F)F)c4)C(Cc4ccccc4)C3)CC2)C1 (centres unmarked)
- pIC50 NK1 [2]: 8.5
- pIC50 NK3 [3]: 6.1

Structure (SMILES): O=C(c1cc(C(F)(F)F)cc(C(F)(F)F)c1)N1CCC(N2CCN(C3CCCN(S(=O)(=O)c4cccs4)C3)CC2)CC1Cc1ccccc1 (centres unmarked) [Compound 59]
- pIC50 NK2 [1]: 6.1
- pIC50 NK1 [2]: 8.0
- pIC50 NK3 [3]: 7.0
